Patent US11814388B1, “Substituted pyrrolo[2,3-d]pyrimidines and pyrazolo[3,4-d]pyrimidines as inhibitors for multi-resistant cancers” (priority 2020, dated 2023)

By UniProt entry, the sequences of proteins in these tests, tags left out.
UniProt Q96GD4, whole entry: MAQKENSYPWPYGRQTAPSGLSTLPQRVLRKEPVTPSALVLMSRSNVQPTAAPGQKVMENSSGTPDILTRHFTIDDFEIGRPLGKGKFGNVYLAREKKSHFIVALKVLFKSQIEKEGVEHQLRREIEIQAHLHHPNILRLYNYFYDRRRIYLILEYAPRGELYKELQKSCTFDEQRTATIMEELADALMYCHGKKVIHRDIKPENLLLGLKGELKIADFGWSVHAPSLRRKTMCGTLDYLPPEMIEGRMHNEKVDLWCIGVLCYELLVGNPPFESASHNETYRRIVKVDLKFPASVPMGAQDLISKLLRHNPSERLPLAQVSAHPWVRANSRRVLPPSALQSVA

Target: AURKB (Homo sapiens (Human), UniProt Q96GD4)
Test: Kinomescan KdELECT platform (DiscoverX), AURKB
Type: binding

Row | SMILES | Kd [µM]
1 | O=C(Nc1ccc(Nc2ncnc3[nH]ccc23)cc1)c1ccccc1 [Compound 5] | 0.47
2 | c1ccc(COc2ccc(Nc3ncnc4[nH]ccc34)cc2)cc1 [Compound 9] | 9.8
